# Data reported in patent publication US20180066031A1, “ENZYMATICALLY-CLEAVABLE PEPTIDE AMPHIPHILES” (The University of Chicago, priority 2016, published 2018).
# Entries after “also recorded” stand apart in the source; their conditions may differ.
# Experiments:
# [1] = test system: HeLa cells; assay: Intracellular cleavage and trafficking of FRET PAs after 1 hour pulse (confocal and superresolution microscopy); format: cell-based; settings: for Cellular internalization: 1 hour pulse; for Relative amount of intracellular p53(14-29) peptide (Tamra intensity): 6 hours; for FRET signaling / FRET efficiency from 6 hours to 24 hours: washed after 1 hour, superresolution confocal; for FRET signaling in cells: 1 hour incubation then wash, followed for 6 hours
# Description: (§1) HeLa cells were maintained in DMEM (Invitrogen) supplemented with 10% FBS, 100 U ml^−1 penicillin/streptomycin, 2 mM L-glutamine, and 0.1 mM MEM nonessential amino acids. Cells were grown at 37° C., humidified atmosphere and 5% CO2. Cells were allowed to attach on the surfaces overnight (12 h).
# (§2) HeLa cells were incubated with 2.5 μM PAs and 0.1 μM transferrin (Alexa Fluor 647 labeled, Thermo Fisher Science) for 1 hour in Advanced DMEM (Invitrogen) supplemented with 1% FBS. The media was then removed and cells were washed and either fixed immediately with 4% paraformaldehyde in PBS for 10 minutes at room temperature, or replaced with new peptide-free media and cells were allowed to incubate for another 1, 2, or 5 hours before being fixed. The fixed cells were then washed and left in PBS before being imaged. For accumulation experiments, 10 μM PAs were incubated individually and left on the cells for 24 h and the confocal images were taken in different time periods from live cells.
# Images were taken by Marianas Yokogawa type spinning disk (inverted confocal microscope). The following lasers were used: (1) green: λexc=488 nm, filter: green; (2) Red: λexc=565 nm, filter: red; (3) Transferrin: λexc=640 nm, filter: far red; (4) FRET channel: λexc=488 nm, filter: red. Superresolution images were taken on a Leica SP5 II STED-CW Superresolution Laser Scanning Confocal Microscope. All imaging was performed at the Integrated Light Microscope Core Facility at the University of Chicago. Images were analyzed by ImageJ software.
# To better understand trafficking of p53(14-29) inside cells, FRET capable PA constructs were used (FIG. 3). HeLa cells were pulsed with 2.5 μM PA for 1 hour and washed rather than allow for continuous PA exposure that would complicate our visualization of catB-mediated cleavage and intracellular trafficking. […] Each was taken in through endocytosis with substantial compartmental co-localization with transferrin-positive intracellular vesicles, reflective of early and late endosomal trafficking (FIG. 6). Despite most intact PAs being associated with transferrin-positive early endosomes, there was also evidence of dissociation and movement of diC16 out of these endosomes and into other areas of the cell as early as 1 hour following treatment with diC16-VC-PABA-p53(14-29) (FIG. 6). Transferrin labels early endosomes that ultimately transition to sorting endosomes or endocytic recycling compartments where transferrin is released from the transferrin receptor at low pH (Refs. B52-B54; incorporated by reference in their entireties). Because this process can take as little as 10 minutes, it is unclear if these diC16 tail fragments were located within late endosomes or being recycled back to the cell surface (Ref. B54; incorporated by reference in its entirety). Regardless, unlike diC16-VC-PABA-p53(14-29), control diC16-GGG-p53(14-29) PAs were universally found in vesicles as one unit (FIGS. 5 and 6). Cleavage of p53(14-29) from diC16 and loss of FRET signal in cells treated diC16-VC-PABA-p53(14-29) occurred almost completely by 3 hours following incubation whereas FRET signal was retained in cells treated with diC16-GGG-p53(14-29) PAs (FIG. 5). p53(14-29) peptide appeared to accumulate in discrete locations within the cell by 6 hours in contrast to control PAs. Additionally, diC16-GGG-p53(14-29) PA treated cells lost overall intensity over time (FIG. 4).
# To confirm that loss of FRET signal was due to cleavage of p53(14-29) from diC16 and not loss of FRET efficiency (e.g., due to loss of fluorescent intensity, photobleaching, etc.), HeLa cells were treated as above but with an increased PA concentration of 10 μM. Extracellular PA was washed away after 1 hour and cells were allowed to incubate for 6 and 24 hours followed by superresolution laser scanning confocal microscopy. Raw images were analyzed for FRET signaling at each time point comparing diC16-VC-PABA-p53(14-29) to diC16-GGG-p53(14-29) and non-treated cells (FIG. 7). […]
# [2] = test system: HeLa cells; assay: Intracellular accumulation of PAs under continuous incubation (confocal); format: cell-based; settings: 10 μM PA, 16 and 24 hours
# Description: as §1, §2
# Images were taken by Marianas Yokogawa type spinning disk (inverted confocal microscope). The following lasers were used: (1) green: λexc=488 nm, filter: green; (2) Red: λexc=565 nm, filter: red; (3) Transferrin: λexc=640 nm, filter: far red; (4) FRET channel: λexc=488 nm, filter: red. […] Images were analyzed by ImageJ software. […]
Substance,Cellular internalization ([1]; 2.5 μM PA),"Time to almost complete cleavage of p53(14-29) from diC16 and loss of FRET signal ([1]; 2.5 μM PA, 1 hour pulse then wash, time following incubation) [h]",Relative amount of intracellular p53(14-29) peptide (Tamra intensity) ([1]; 10 μM PA),FRET signaling / FRET efficiency from 6 hours to 24 hours ([1]; 10 μM PA),FRET signaling in cells [1],Intracellular accumulation of PA [2],"Intracellular p53(14-29) peptide levels (Tamra intensity) ([1]; 10 μM PA, by 24 hours)"
"diC16-VC-PABA-p53(14-29): cleavable p53(14-29) peptide amphiphile: diC16 hydrophobic tail, VC-PABA catB-cleavable linker, FAM and Tamra fluorophores",equivalently internalized within one hour,≤ 3,similar,decreased,almost undetectable by 6 hours,far greater than non-cleavable control PAs,–
"diC16-GGG-p53(14-29): non-cleavable control p53(14-29) peptide amphiphile: diC16 hydrophobic tail, GGG linker, FAM and Tamra fluorophores",equivalently internalized within one hour,–,similar,no change,retained; also recorded: decreased but still remained,did not intracellularly accumulate over time,dropped significantly
